This is an account of results in patent publication US20150272951A1, “COMPOUNDS FOR THE TREATMENT OF LYSOSOMAL STORAGE DISEASES” (The Hospital for Sick Children, priority 2010, published 2015).

Protein sequences, listed by entry. Tags and fused reporters are not part of them. Lines headed by an entry give the natural chain unless they say otherwise; changes in a name come on top. Chains listed by the source or under a name are the forms on record and can include a tag or linker. Residues count along the entry.
UniProt P06865, with tags, fused parts or gaps limits assumed: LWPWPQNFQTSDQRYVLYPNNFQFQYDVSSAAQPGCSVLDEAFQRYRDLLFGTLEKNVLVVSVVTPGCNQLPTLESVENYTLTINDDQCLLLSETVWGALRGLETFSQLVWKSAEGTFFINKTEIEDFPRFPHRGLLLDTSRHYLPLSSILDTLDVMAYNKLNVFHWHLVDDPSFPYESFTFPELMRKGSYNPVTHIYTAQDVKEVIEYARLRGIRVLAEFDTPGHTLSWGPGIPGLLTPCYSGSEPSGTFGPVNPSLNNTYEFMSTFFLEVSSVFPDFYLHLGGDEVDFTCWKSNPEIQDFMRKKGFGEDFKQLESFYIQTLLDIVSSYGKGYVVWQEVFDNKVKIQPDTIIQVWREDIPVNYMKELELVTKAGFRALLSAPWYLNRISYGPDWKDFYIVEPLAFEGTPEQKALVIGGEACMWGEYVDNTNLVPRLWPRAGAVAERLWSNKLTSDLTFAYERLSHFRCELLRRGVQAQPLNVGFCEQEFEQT
UniProt P06865, 89-529 limits assumed: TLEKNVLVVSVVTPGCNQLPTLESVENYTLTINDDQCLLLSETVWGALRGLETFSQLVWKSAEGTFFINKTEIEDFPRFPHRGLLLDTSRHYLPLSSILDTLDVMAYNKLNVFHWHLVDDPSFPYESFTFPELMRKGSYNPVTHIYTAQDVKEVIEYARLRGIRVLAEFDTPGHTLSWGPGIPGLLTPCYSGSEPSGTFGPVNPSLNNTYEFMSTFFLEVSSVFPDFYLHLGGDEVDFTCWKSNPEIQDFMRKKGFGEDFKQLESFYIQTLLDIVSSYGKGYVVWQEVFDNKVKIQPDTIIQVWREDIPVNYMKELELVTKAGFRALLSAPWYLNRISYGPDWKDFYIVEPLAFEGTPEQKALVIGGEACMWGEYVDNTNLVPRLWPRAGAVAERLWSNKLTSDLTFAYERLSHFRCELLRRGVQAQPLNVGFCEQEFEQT
UniProt P07686, with tags, fused parts or gaps limits assumed: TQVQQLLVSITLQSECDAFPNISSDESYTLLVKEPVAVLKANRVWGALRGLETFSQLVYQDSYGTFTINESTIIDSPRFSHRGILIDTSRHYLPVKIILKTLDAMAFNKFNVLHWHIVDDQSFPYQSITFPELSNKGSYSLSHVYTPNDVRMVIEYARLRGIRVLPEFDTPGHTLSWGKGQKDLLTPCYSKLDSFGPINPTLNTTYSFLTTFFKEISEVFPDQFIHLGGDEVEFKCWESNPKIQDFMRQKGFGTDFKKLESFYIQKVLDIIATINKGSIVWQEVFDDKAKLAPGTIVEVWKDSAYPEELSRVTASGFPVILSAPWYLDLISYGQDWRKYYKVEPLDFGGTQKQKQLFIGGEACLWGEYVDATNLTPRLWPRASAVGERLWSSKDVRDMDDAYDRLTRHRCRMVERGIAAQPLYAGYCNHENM
UniProt P07686, 122-311 limits assumed: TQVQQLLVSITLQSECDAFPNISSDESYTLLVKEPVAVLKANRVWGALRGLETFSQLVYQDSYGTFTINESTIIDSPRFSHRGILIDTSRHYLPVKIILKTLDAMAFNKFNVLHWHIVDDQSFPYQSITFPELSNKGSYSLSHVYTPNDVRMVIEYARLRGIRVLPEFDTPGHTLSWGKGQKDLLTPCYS
UniProt P07686, 315-556 limits assumed: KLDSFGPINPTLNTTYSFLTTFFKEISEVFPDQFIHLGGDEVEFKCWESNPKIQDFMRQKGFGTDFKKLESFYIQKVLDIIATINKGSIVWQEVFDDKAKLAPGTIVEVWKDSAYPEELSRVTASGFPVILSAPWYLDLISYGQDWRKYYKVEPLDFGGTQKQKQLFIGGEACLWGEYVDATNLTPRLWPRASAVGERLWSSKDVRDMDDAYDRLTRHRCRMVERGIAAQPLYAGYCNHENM

A word on the IC50: it is the midpoint of a concentration-inhibition curve. What is called EC50 is the concentration needed to bring the measured effect to its halfway point. Low readings indicate higher potency in that assay, high ones lower potency in that assay.

The structures appear in SMILES notation. Like-named read-outs stand apart in the source and are kept apart here.

The target in one assay is Hex A (Homo sapiens, UniProt P06865+P07686). The assay is described as follows: Hex A inhibition (IC50 from dose response curves of Hex A residual activity).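 Further: remaining Hex A enzyme activity recorded across rising inhibitor doses, with dose response curves run at pH 6.5 and again at pH 4.5.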
The target in the next assay is mutant Hex A (Homo sapiens, UniProt P06865+P07686).

For `CCc1nc(N)nc(N)c1-c1ccc(OC)cc1`, the IC50 at Hex A (read-out: IC50 (μM ± Err), Hex A inhibition, values determined in Example 3, pH not given) came out at 23 µM; against Hex A (without error, pH not stated) it was 23.1 µM. In addition, the 50% effective concentration (EC50) at mutant Hex A (Hex A rescue, determined from graphs of FIGS. 5-7) is 7.2 µM. For the same compound, on mutant Hex A (maximum increase in Hex A activity relative to untreated cells (=1)), the “Max Increase” value stood at 1.4. The “Range of Increase” value on mutant Hex A (range of increase in Hex A activity) is given as 4.
